Assay results taken from ChEMBL document CHEMBL4428099, “Identification of indole scaffold-based dual inhibitors of NOD1 and NOD2” (Bioorg Med Chem, 2016).

Species on record: Homo sapiens
Test: Selectivity ratio, ratio of IC50 for human NOD2 over-expressed in HEK-Blue cells to IC50 for human NOD1 over-expressed in HEK-Blue cells
Format: cell-based

SMILES: Cc1ccc(S(=O)(=O)n2c(N)nc3ccccc32)cc1
- Ratio IC50: 75
